The numbers were not newly measured in patent EP1570862A1, “Highly soluble binary cyclodextrin inclusion complexes” (priority 2004, dated 2005), which cites them from elsewhere.

For this data set the following is noted: cited from earlier work.

For the substance γ-cyclodextrin, the water solubility is listed as 23.2 g/100 ml.
